{"source": "patent US20210369684A1", "about": "(MOUNT TAM THERAPEUTICS, INC., priority 2018, published 2021)", "key": {"TORC2": {"target": "T1, TORC2 (Homo sapiens, UniProt P42345+P62942)", "T1 construct": "endogenous in cells; host or cells: PC3 cells", "assay": "IC50 in PC3 cells, TORC2", "format": "cell-based"}, "TORC1": {"target": "T2, TORC1 (Homo sapiens, UniProt P42345+P62942)", "T2 construct": "endogenous in cells; host or cells: PC3 cells", "assay": "IC50 in PC3 cells, TORC1", "format": "cell-based"}}, "data": [{"substance": "C37-[(1S,2R,4S,5R)-5-hyhroxybicyclo[2.2.1]heptane] rapamycin [reference compound]", "values": [{"measurement": "IC50", "setting": "TORC2", "result": 11, "unit": "nM"}, {"measurement": "IC50", "setting": "TORC1", "result": 0.045, "unit": "nM"}, {"measurement": "TORC1/TORC2 Selectivity", "setting": "TORC1; from IC50 values", "result": 244, "unit": "x"}]}]}
